Patent US7964376B2, “Chimeric proteins and their use in methods to screen for sweet taste modulators” (Givaudan SA, priority 2006, dated 2011)

Test system: G16gust44 (NEG. CONTROL)
Settings: normalized increase in fluorescence over baseline, mean of three replicates; p-ETBZ 100 microM, NDHC 1 mM, NarDHC 1 mM, Cyclamate 5 mM

SMILES | G16gust44 (NEG. CONTROL) AVG (dF/F)
CCOc1ccc(C=O)cc1 [p-ETBZ] | 0.16 dF/F
COc1ccc(CCC(=O)c2c(O)cc(O[C@@H]3O[C@H](CO)[C@@H](O)[C@H](O)[C@H]3O[C@@H]3O[C@@H](C)[C@H](O)[C@@H](O)[C@H]3O)cc2O)cc1O [NDHC, Neohesperidin Dihydrochalcone] | 0.23 dF/F
